# Measured affinities in a library of Ab-14 light chain variants

All variants were tested on one target, the spike HR2 peptide PDVDLGDISGINAS (SARS-CoV-2).

Each scFv is VH, a 15-residue (Gly4Ser)3 linker, VL, as in the parent Ab-14, and differs from it in the CDRs of the light chain only.
VH: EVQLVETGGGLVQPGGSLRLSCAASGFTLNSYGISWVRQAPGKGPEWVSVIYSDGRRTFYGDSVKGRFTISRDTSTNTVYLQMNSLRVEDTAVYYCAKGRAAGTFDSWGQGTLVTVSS
VL: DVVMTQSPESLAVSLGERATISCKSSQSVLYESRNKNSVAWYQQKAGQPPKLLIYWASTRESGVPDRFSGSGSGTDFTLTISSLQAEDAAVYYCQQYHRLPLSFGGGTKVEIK

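The parent was found by panning a naive human phage display library on the peptide. Designed CDR sequences, proposed from the first random library and measured here. Their group label is 14L_GP_HC (GP: Gaussian process model; HC: hill climbing; a sequence that several methods proposed may carry one label only). The scFvs were displayed on barcoded MATa yeast, the peptide on MATalpha yeast. The frequency of each diploid, read from paired DNA barcodes, reflects how well the two displayed proteins bind. Each replicate has its own calibration line, from reference interactions of the BCL2 family. Each pool was mated in six replicate cultures.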

Changes read parent residue, position, new residue, counted from the first residue of the VL shown.
The read-out is the apparent dissociation constant on a log10 scale (nM): the lower, the stronger.
The authors' rule: three or more of the six replicates give a measured affinity, fewer mean a poor binder.

changes,log10 Kd (nM) by replicate,control signals
S25L Q27L W56D,0.37 / 0.16 / 0.07 / 0.15 / 0.02 / 0.30,0 of 18
S25V V29F W56D S58N,-0.12 / -0.33 / -0.44 / -0.45 / -0.17 / -0.35,0 of 18
S26L V29Q L30E W56H S62D R99K,0.67 / 0.34 / 0.26 / 0.28 / 0.29 / 0.48,0 of 18
S26L Q27W L30P R34N W56H S62D,0.30 / 0.23 / 0.26 / 0.26 / 0.42 / 0.46,2 of 18 (3.16)
S25V S26L L30V S33G W56S S62D,0.66 / 1.36 / 1.09 / 1.15 / 1.20 / 1.20,0 of 18
S25V V29F S38A W56A,0.32 / -0.07 / 0.08 / -0.46 / -0.17 / 0.32,1 of 18 (3.46)
S25L S26E V29P L30N W56N,-0.13 / -0.17 / -0.19 / -0.27 / -0.17 / -0.07,1 of 18 (2.54)
S25L V29T E32D R34Q,1.14 / 1.08 / 0.95 / 1.02 / 1.14 / 0.98,1 of 18 (2.73)
S25V Q27I V29D Y31L W56E,0.20 / 0.23 / 0.14 / -0.04 / -0.01 / 0.21,1 of 18 (3.36)
K24H S25L Q27D Y31D W56N S103N,0.37 / 0.48 / 0.59 / 0.47 / 0.09 / 1.02,0 of 18
V29W W56N S62N,-0.26 / -0.35 / -0.45 / -0.37 / -0.35 / -0.44,1 of 18 (4.52)
S25L V29T E32D H98K,0.30 / 0.15 / 0.19 / 0.32 / 0.34 / 0.20,2 of 18 (3.12)
S25L V29W K36F N37W W56N,0.40 / 0.27 / 0.28 / 0.29 / 0.29 / 0.47,3 of 18 (2.40)
Q27I V29W W56G S62K,0.03 / -0.01 / 0.09 / -0.07 / -0.03 / 0.09,1 of 18 (2.45)
S28V V29Y W56N,-0.02 / -0.09 / -0.15 / -0.25 / -0.10 / -0.02,7 of 18 (2.91)
S25L S26P Q27N V29T N35Q W56N E61L,0.62 / 0.61 / 0.33 / 0.39 / 0.36 / 0.69,2 of 18 (3.23)
S25M Y31M S33H R34G W56D T59L,0.03 / 0.10 / 0.15 / -0.34 / -0.15 / -0.06,2 of 18 (1.97)
K24H S25L Q27W S28V Y31L W56N,0.09 / -0.12 / -0.12 / -0.09 / 0.12 / 0.16,0 of 18
L30G Y31G S33Q W56D A57I,-0.15 / -0.21 / -0.24 / -0.39 / -0.30 / -0.02,1 of 18 (2.99)
S25L S26R Q27M V29T W56Q T59K,0.35 / 0.19 / 0.33 / 0.00 / 0.19 / 0.16,2 of 18 (2.25)
S25I S26L V29W W56H S62Q,0.33 / 0.42 / 0.36 / 0.29 / 0.44 / 0.63,3 of 18 (4.19)
S26E N35D W56H S62D,0.40 / -0.05 / 0.13 / 0.09 / 0.01 / 0.14,1 of 18 (2.82)
S26Q S38N W56E S62D,-0.14 / -0.10 / -0.22 / -0.26 / -0.30 / -0.05,2 of 18 (1.98)
S25M Y31G S33Q W56D A57I,0.02 / -0.18 / -0.35 / 0.01 / -0.06 / -0.28,2 of 18 (1.63)
S25F W56D S103D,0.42 / 0.87 / 0.35 / 0.24 / 0.22 / 0.75,0 of 18
Q27G Y31F E32Q W56D,0.68 / 0.75 / 0.69 / 0.27 / 0.40 / 0.62,0 of 18
S25Q S28E V29K W56D H98W,0.70 / 1.16 / 0.85 / 0.36 / 0.60 / 0.56,0 of 18
S25V S26Y Q27P V29E W56Q,-0.06 / -0.27 / -0.44 / -0.25 / -0.32 / -0.23,0 of 18
V29W W56H S62Q,0.90 / 1.23 / 0.88 / 1.17 / 1.07 / 1.54,1 of 18 (1.45)
V29Y K36V W56G E61D,0.07 / -0.08 / -0.02 / -0.13 / -0.02 / 0.06,2 of 18 (3.10)
Y31V E32Q W56D,0.27 / 0.00 / 0.02 / 0.05 / 0.03 / 0.32,4 of 18 (2.66)
S25L S26L V29E W56H S62D R99Q,-0.15 / -0.23 / -0.34 / -0.15 / 0.02 / 0.01,1 of 18 (1.68)
Q27I V29Y Y31E W56E S62E,0.25 / 0.36 / 0.17 / -0.06 / 0.15 / 0.31,1 of 18 (2.55)
S26Q S38N W56N S62D,-0.56 / -0.45 / -0.73 / -0.90 / -0.78 / -0.26,0 of 18
S25V Q27W R34G N35T W56N T59V,0.45 / 0.55 / 0.53 / 0.54 / 0.53 / 0.63,3 of 18 (3.13)
S25Y S26Y Q27P V29Y L30Y W56Q,0.44 / 0.01 / 0.04 / 0.14 / -0.07 / 0.85,1 of 18 (3.00)
S25I V29W W56G T59A S62V,-0.26 / -0.29 / -0.29 / -0.45 / -0.24 / -0.20,1 of 18 (2.57)
K24N S25L V29E W56G A57G S58N,1.07 / 0.58 / 0.31 / 0.05 / 0.27 / 0.20,0 of 18
Q27I V29Y W56A T59Q,0.43 / 0.42 / 0.01 / 0.01 / 0.52 / 0.66,0 of 18

Empty control strains, which show no peptide, gave a signal in 4% of pairings with all light chain designs; the median was 2.64 and 95% of these signals were weaker than 1.59. No background was subtracted. The control count says in how many pairings with the empty strains this scFv gave a signal, with their mean in brackets.
Values of this round are not directly comparable with the first-round values of the same sequences.
Of ten entries with the parent sequence, four were seen in most replicates (averages 0.34 to 2.37), three in one and three in none, so single entries are noisy.

Source: Li et al. 2023 (doi:10.1038/s41467-023-39022-2), MIT Lincoln Laboratory and A-Alpha Bio; data file from the FLAb repository.